Experimental data reported in PMC9975938.

By UniProt entry, the sequences of proteins in these tests, tags left out. Where a name states a change or a piece, a line headed by the entry shows the natural chain unless it says otherwise.
UniProt P68369: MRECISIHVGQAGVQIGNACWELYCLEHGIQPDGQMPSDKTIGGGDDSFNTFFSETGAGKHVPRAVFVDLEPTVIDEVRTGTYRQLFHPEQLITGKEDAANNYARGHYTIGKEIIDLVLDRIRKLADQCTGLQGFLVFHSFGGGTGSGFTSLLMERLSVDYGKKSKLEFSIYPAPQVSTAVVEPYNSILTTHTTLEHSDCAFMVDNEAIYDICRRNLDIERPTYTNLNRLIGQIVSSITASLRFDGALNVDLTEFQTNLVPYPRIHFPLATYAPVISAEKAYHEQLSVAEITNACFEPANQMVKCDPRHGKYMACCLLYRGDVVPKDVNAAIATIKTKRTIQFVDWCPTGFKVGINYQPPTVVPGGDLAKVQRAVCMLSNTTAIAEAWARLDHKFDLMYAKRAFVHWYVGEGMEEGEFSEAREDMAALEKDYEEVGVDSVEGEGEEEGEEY

Columns and labels:
[1] = biological target: microtubules polymerised from wild-type mouse brain tubulin (mouse (endogenous in brain)) (UniProt P68369); test: TIRF microscopy of fluorescent protein on immobilised microtubules
[2] = biological target: microtubules polymerised from Ttll1 −/− Ttll7 −/− double-knockout mouse brain tubulin (mouse (endogenous in brain)) (UniProt P68369); test: as above

## Tau(2N4R) of human Tau fused with C-terminal mCherry (from UniProt P10636-8 1-441) (natural protein)
[1]
  Kd: 480 nM
[2]
  Kd: 710 nM
